Bioassay records as filed in PubChem.
ERp5 block: inhibitors of ERp5-driven insulin aggregation, primary screen, biochemical, turbidity, absorbance 650 nm, single point | Protein disulfide-isomerase A6 (Homo sapiens), Q15084 | 90 min | inhibition, % at 9.99 µM | hit rate 0.05% among 350,000;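 active = mean replicate inhibition above about 25%, with every replicate also reaching it, limit read from the data, passing the limit was not always enough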
PDI turbidity: inhibitors of human PDI, primary screen, biochemical, turbidity, single point, plate reader; Protein disulfide-isomerase (Homo sapiens), P07237; inhibition, % at 10 µM; AID 588391, 2011; hit rate 0.052% among 350,000; PDI insulin aggregation turbidity, A650, 90 min;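 active = mean inhibition across replicates of 30% or more, whatever share of single replicates reach that level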
Yeast UUG start-1: alters start codon recognition fidelity in yeast. S. cerevisiae UUG-firefly luciferase reporter, luminescence/redox ratio. activity score, % at 18.7 µM. 0.13% of 350,000 active. AID 602363;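 active = replicate mean at a twofold rise or more, about +100% in these data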;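 also: firefly luciferase made from a UUG start codon reports start codon fidelity; reporter light over untreated wells divided by growth signal over untreated wells; some hits fall short of that in this replicate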
ARNT-TACC3 inh: disruptors of ARNT/TACC3 protein interaction, primary screen, biochemical, AlphaScreen, single concentration | AlphaScreen His-ARNT PAS-B/GST-TACC3 binding, luminescence; TACC3 fragment carries E629A point mutation | inhibition, % at 9.99 µM | hit rate 0.66% among 390,000;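 active = mean inhibition of replicates at least 50% and at least half of replicates each reaching 50%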;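 note: 0% = complete ARNT plus TACC3 wells and 100% = ARNT alone without TACC3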
FGF22 binding: binders of human FGF22 protein, primary screen, FGF22 synaptogenesis inhibitor project, biophysical, thermal shift, single point; hit rate 1.5% among 340,000; recombinant FGF22 thermal shift, SYPRO orange fluorescence; percent of sucrose octasulfate shift, DMSO zero; activity (Tm shift, normalised), % at 9.99 µM; Fibroblast growth factor 22 (Homo sapiens), Q9HCT0;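 active = mean Tm shift, scaled 0 neutral to 100 positive control, at about 1.3% or above, every replicate too, limit read from the data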
PglD inh: C. jejuni PglD acetyltransferase inhibitors, primary screen, biochemical, DTNB colorimetric, single point. UDP-N-acetylbacillosamine N-acetyltransferase PglD (Campylobacter jejuni). purified PglD enzyme, DTNB colorimetric CoA detection. inhibition, % at 12.5 µM. hit rate 0.098% among 360,000. AID 602405, 2012; in the data active = inhibition above about 16%, passing the limit was not always enough
Yeast UUG start-2: enhancers of UUG start codon usage in yeast, dose response, S. cerevisiae, UUG firefly luciferase, cherry-pick, set 2. 540 tested, under 10 active. activation, % at 38 µM. shares compounds with Yeast UUG start-1. luminescence, 4 h; 100% means double the DMSO signal;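 active = signal increase whose fitted curve reaches an absolute level of 40 at a concentration under 10 µM; inactive = activity opposite to the expected increase, or the rest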
* = called active by the depositor; i = inactive; . = no result. This is a sample that favours compounds with a hit; in the whole collection about 1.9% have one here.

Protein sequences, listed by entry. Tags and fused reporters are not part of them.
Protein disulfide-isomerase A6 (Homo sapiens), Q15084, UniProt Q15084, whole entry, looked up: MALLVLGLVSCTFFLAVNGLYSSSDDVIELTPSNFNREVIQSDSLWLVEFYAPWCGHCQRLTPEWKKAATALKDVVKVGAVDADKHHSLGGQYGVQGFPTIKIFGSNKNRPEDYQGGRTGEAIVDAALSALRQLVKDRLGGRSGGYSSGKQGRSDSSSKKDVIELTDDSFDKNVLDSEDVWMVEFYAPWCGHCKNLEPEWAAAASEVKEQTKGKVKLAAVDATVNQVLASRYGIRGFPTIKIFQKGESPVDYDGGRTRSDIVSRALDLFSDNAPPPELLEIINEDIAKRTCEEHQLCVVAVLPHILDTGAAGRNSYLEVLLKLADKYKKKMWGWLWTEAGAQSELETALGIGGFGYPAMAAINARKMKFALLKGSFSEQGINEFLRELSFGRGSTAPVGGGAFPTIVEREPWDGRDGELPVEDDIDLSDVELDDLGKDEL
Protein disulfide-isomerase (Homo sapiens), P07237, UniProt P07237, whole entry, looked up: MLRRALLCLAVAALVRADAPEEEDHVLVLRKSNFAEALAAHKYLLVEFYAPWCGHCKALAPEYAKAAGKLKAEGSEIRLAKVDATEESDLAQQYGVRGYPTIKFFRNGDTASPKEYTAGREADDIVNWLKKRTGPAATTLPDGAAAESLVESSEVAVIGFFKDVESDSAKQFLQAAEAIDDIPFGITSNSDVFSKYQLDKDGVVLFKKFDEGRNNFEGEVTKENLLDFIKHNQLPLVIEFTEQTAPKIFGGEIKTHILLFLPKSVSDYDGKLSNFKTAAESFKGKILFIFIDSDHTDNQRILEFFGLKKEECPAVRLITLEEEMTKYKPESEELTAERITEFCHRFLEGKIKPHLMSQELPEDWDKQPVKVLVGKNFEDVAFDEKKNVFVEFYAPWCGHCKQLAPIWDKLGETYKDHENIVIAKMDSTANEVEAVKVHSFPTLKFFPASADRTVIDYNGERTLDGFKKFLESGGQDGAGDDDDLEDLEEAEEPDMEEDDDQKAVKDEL

Letters: A = ERp5 block; B = PDI turbidity; C = Yeast UUG start-1; D = ARNT-TACC3 inh; E = FGF22 binding; F = PglD inh; G = Yeast UUG start-2
> Cc1ccc(Oc2nc3ccccn3c(=O)c2/C=C(\C#N)C(=O)Nc2c(C)n(C)n(-c3ccccc3)c2=O)c(C)c1
  A = -3 | B = -5 | C = 7 | D = 6 | E = 0 | F = -14 | G = .

> COc1ccc(NC(=O)N(C)C[C@@H]2Oc3ccc(NC(=O)Nc4ccc(C(F)(F)F)cc4)cc3C(=O)N([C@@H](C)CO)C[C@@H]2C)cc1
  A = . | B = . | C = -11 | D = 0 | E = 1 | F = -1 | G = .

> C[C@@H]1CN([C@H](C)CO)C(=O)c2cccc(NC(=O)Nc3ccccc3)c2O[C@@H]1CN(C)C(=O)Nc1ccc2c(c1)OCO2
  A = 1 | B = . | C = -6 | D = 7 | E = -1 | F = 3 | G = .

> Cc1onc(-c2ccc(Cl)cc2)c1-c1ccnn1S(=O)(=O)c1cccc(C(F)(F)F)c1
  A = 2 | B = 3 | C = 187* | D = -6 | E = 0 | F = 4 | G = 19

> Cc1onc(-c2ccccc2)c1-c1ccnn1S(=O)(=O)c1ccc(Cl)cc1
  A = 2 | B = -2 | C = . | D = 5 | E = 0 | F = . | G = .

> Cc1ccc(S(=O)(=O)N2CCOCC2)cc1C(=O)OC(C)C(=O)NC1CCCC1 (centres undefined)
  A = -10 | B = -10 | C = 119* | D = -6 | E = 0 | F = 2 | G = -5

> CCOC(=O)CNC(=O)c1ccccc1
  A = . | B = 7 | C = 103* | D = -2 | E = . | F = -4 | G = 10

> O=C(CNC(=O)c1ccccc1F)NCCc1ccc(Cl)cc1
  A = 5 | B = -5 | C = -11 | D = 4 | E = 0 | F = 4 | G = .

> O=C(CNC(=O)c1ccccc1F)NCCOc1cccc(Cl)c1Cl
  A = . | B = 12 | C = 517* | D = . | E = . | F = -3 | G = 2

> COc1ccc2c3c([nH]c2c1)[C@@H](CO)N(C(=O)Nc1ccc(F)cc1)CC31CCN(C(=O)Cc2ccccc2)CC1
  A = -3 | B = . | C = . | D = . | E = 0 | F = . | G = .

> CCC(=O)N1C[C@@H](O)COC[C@H]2O[C@@H](CC(=O)NCC3CCCCC3)CC[C@@H]21
  A = -3 | B = . | C = 112* | D = 9 | E = -1 | F = -1 | G = i

> COCC(=O)N(C)C[C@@H]1Oc2cc(-c3cccnc3)ccc2S(=O)(=O)N([C@@H](C)CO)C[C@H]1C
  A = -1 | B = . | C = 7 | D = -9 | E = 0 | F = 1 | G = .

> CC1CN(Cc2c(O)ccc3c2oc(=O)c2ccccc23)CC(C)O1 (centres undefined)
  A = -10 | B = 1 | C = 156* | D = 9 | E = 0 | F = 3 | G = 15

> O=c1[nH]c(/C=C\c2ccc(O)c(Cl)c2)nc(O)c1[N+](=O)[O-]
  A = 2 | B = 3 | C = 167* | D = 1 | E = 1 | F = 0 | G = 2

> CN(C(=O)c1ccc(OC2CCN(CCc3ccccc3)CC2)cc1)C1CCOC1 (centres undefined)
  A = 9 | B = -3 | C = 10 | D = -9 | E = 0 | F = 4 | G = .

> O=C(NC1CCOC1)c1ccc(OC2CCN(CCc3ccccc3)CC2)cc1 (centres undefined)
  A = -5 | B = 2 | C = 503* | D = 7 | E = 0 | F = -4 | G = -2

> COCC(=O)Nc1ccc2c(c1)[C@H]1C[C@@H](CC(=O)NCc3ccccc3F)O[C@@H](CO)[C@H]1O2
  A = 2 | B = . | C = . | D = -6 | E = 0 | F = 1 | G = .

> C[C@H]1CN([C@@H](C)CO)C(=O)c2cc(NC(=O)NC3CCCCC3)ccc2O[C@H]1CN(C)S(=O)(=O)c1ccccc1
  A = -1 | B = . | C = -4 | D = 4 | E = 0 | F = 0 | G = .

> COc1ccc(C2CC(=O)C=C(O)C2)cc1 (centres undefined)
  A = 0 | B = 3 | C = . | D = 0 | E = 0 | F = . | G = .

> COc1cc(C2CC(=O)C=C(O)C2)cc(OC)c1OC (centres undefined)
  A = . | B = -3 | C = 516* | D = 30 | E = . | F = 0 | G = 0

> CCN(C(=O)c1cc(Cl)ccc1OC)c1ccccc1
  A = . | B = -4 | C = -5 | D = 1 | E = . | F = 0 | G = .

> CCN(C(=O)c1cc(Cl)ccc1OC)c1ccccc1C
  A = . | B = 3 | C = 128* | D = -10 | E = . | F = -4 | G = 4

> CCOc1ccc(CCNS(=O)(=O)c2c(C)cc(C)cc2C)cc1OCC
  A = . | B = . | C = . | D = . | E = . | F = . | G = i
